Measured values taken from US20120058997A1, “IMIDAZO[1,2-B]PYRIDAZINE AND PYRAZOLO[1,5-A]PYRIMIDINE DERIVATIVES AND THEIR USE AS PROTEIN KINASE INHIBITORS” (SuperGen, Inc., priority 2006, published 2012).

Protein sequences, listed by entry. Tags and fused reporters are not part of them.
UniProt P11309, whole entry: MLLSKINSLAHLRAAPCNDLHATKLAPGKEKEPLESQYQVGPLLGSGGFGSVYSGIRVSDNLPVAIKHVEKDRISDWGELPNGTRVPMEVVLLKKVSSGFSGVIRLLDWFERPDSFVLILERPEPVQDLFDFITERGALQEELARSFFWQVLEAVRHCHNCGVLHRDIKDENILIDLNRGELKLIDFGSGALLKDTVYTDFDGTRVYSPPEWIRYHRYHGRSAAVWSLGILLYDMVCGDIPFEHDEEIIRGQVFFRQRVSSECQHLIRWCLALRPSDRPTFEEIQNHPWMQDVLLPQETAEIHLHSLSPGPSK

Biological target: Pim-1 kinase (Homo sapiens, UniProt P11309)
Experiment: Promega Kinase-Glo Pim-1 kinase inhibition assay;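 also: in vitro Pim-1 reaction run 2 h at 30 °C, then leftover ATP measured by luciferase luminescence, where signal falls as kinase activity rises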
[1] = IC50 on Pim1, Table X, Kinase-Glo

CN1CCC(O)(CNc2ccc3ncc(-c4cccc(OC(F)(F)F)c4)n3n2)CC1 [Compound 8-22, 1-Methyl-4-(((3-(3-(trifluoromethoxy)phenyl)imidazo[1,2-b]pyridazin-6-yl)amino)methyl)piperidin-4-ol]
IC50 (IC50 on Pim1): 10 to 100 nM

N#Cc1cccc(-c2cnc3ccc(N[C@H]4CC[C@H](O)CC4)nn23)c1 [Compound 8-26]
IC50 [1]: 10 to 100 nM

O[C@H]1CC[C@@H](Nc2ccc3ncc(-c4cccc(OC(F)(F)F)c4)n3n2)CC1 [Compound 8-2, 4-((3-(3-(Trifluoromethoxy)phenyl)imidazo[1,2-b]pyridazin-6-yl)amino)-cis-cyclohexanol]
IC50 [1]: 10 to 100 nM

O[C@H]1CC[C@H](Nc2ccn3ncc(-c4cccc(Cl)c4)c3n2)CC1 [Compound 8-61]
IC50 [1]: 100 to 1000 nM

O[C@H]1CC[C@H](Nc2ccc3ncc(-c4cccc(OC(F)(F)F)c4)n3n2)CC1 [Compound 8-1, 4-((3-(3-(Trifluoromethoxy)phenyl)imidazo[1,2-b]pyridazin-6-yl)amino)-trans-cyclohexanol]
IC50 [1]: 10 to 100 nM
